In patent US6887658B2, “Methods of identifying non-specific inhibitors of biomolecules” (Northwestern University, priority 2001, dated 2005):
Entries after “also recorded” stand apart in the source; their conditions may differ.

Test: Dynamic light scattering (DLS)
Type: physicochemical

O=S(=O)(O)c1cccc2cccc(Nc3ccccc3)c12 [ANS, 8-anili-no-1-naphthalene-sulfonic acid]
particle formation in solution by DLS (autocorrelation function): did not form particles in solution; also recorded: absence of particles
